Test results published in paper PMC12102759 (Protein Science : A Publication of the Protein Society, 2025).

Test system: MDM2 SWIB
Type: binding, human
Details: library DMS-BM; bait MDM2 SWIB; prey TP53; peptide QETFSDLWKLLPENNV; columns = wild-type residues Q1-N15, rows = amino acid at that position

Sequence	DMS PSSM value (position-specific score of the amino acid at the position; each column sums to 1)
QETFSDLWKLLPENNV L7M (QETFSDMWKLLPENNV)	0.1616
QETFSDLWKLLPENNV L7N (QETFSDNWKLLPENNV)	0
QETFSDLWKLLPENNV L7P (QETFSDPWKLLPENNV)	0
QETFSDLWKLLPENNV L7Q (QETFSDQWKLLPENNV)	0.02763
QETFSDLWKLLPENNV L7R (QETFSDRWKLLPENNV)	0
QETFSDLWKLLPENNV L7S (QETFSDSWKLLPENNV)	0
QETFSDLWKLLPENNV L7T (QETFSDTWKLLPENNV)	0
QETFSDLWKLLPENNV L7V (QETFSDVWKLLPENNV)	0.05714
QETFSDLWKLLPENNV L7W (QETFSDWWKLLPENNV)	0.06517
QETFSDLWKLLPENNV L7Y (QETFSDYWKLLPENNV)	0.2002
QETFSDLWKLLPENNV L10A (QETFSDLWKALPENNV)	0.1598
QETFSDLWKLLPENNV L10D (QETFSDLWKDLPENNV)	0
QETFSDLWKLLPENNV L10E (QETFSDLWKELPENNV)	0.01414
QETFSDLWKLLPENNV L10F (QETFSDLWKFLPENNV)	0.00306
QETFSDLWKLLPENNV L10G (QETFSDLWKGLPENNV)	0.01437
QETFSDLWKLLPENNV L10H (QETFSDLWKHLPENNV)	0.01093
QETFSDLWKLLPENNV L10I (QETFSDLWKILPENNV)	0
QETFSDLWKLLPENNV L10K (QETFSDLWKKLPENNV)	0.05571
QETFSDLWKLLPENNV L10L	0.1534
QETFSDLWKLLPENNV L10M (QETFSDLWKMLPENNV)	0.2314
QETFSDLWKLLPENNV L10N (QETFSDLWKNLPENNV)	0
QETFSDLWKLLPENNV L10P (QETFSDLWKPLPENNV)	0
QETFSDLWKLLPENNV L10Q (QETFSDLWKQLPENNV)	0.2238
QETFSDLWKLLPENNV L10R (QETFSDLWKRLPENNV)	0.004052
QETFSDLWKLLPENNV L10S (QETFSDLWKSLPENNV)	0.09176
QETFSDLWKLLPENNV L10T (QETFSDLWKTLPENNV)	0.01847
QETFSDLWKLLPENNV L10V (QETFSDLWKVLPENNV)	0.003769

Sequence	DMS PSSM value (position-specific score of the amino acid at the position; each column sums to 1)
QETFSDLWKLLPENNV L10W (QETFSDLWKWLPENNV)	0
QETFSDLWKLLPENNV L10Y (QETFSDLWKYLPENNV)	0.01536
QETFSDLWKLLPENNV L11A (QETFSDLWKLAPENNV)	0
QETFSDLWKLLPENNV L11D (QETFSDLWKLDPENNV)	0
QETFSDLWKLLPENNV L11E (QETFSDLWKLEPENNV)	0.01245
QETFSDLWKLLPENNV L11F (QETFSDLWKLFPENNV)	0.004459
QETFSDLWKLLPENNV L11G (QETFSDLWKLGPENNV)	0
QETFSDLWKLLPENNV L11H (QETFSDLWKLHPENNV)	0
QETFSDLWKLLPENNV L11I (QETFSDLWKLIPENNV)	0.7009
QETFSDLWKLLPENNV L11K (QETFSDLWKLKPENNV)	0
QETFSDLWKLLPENNV L11L	0.1688
QETFSDLWKLLPENNV L11M (QETFSDLWKLMPENNV)	0.01307
QETFSDLWKLLPENNV L11N (QETFSDLWKLNPENNV)	0
QETFSDLWKLLPENNV L11P (QETFSDLWKLPPENNV)	0
QETFSDLWKLLPENNV L11Q (QETFSDLWKLQPENNV)	0
QETFSDLWKLLPENNV L11R (QETFSDLWKLRPENNV)	0
QETFSDLWKLLPENNV L11S (QETFSDLWKLSPENNV)	0.003114
QETFSDLWKLLPENNV L11T (QETFSDLWKLTPENNV)	0
QETFSDLWKLLPENNV L11V (QETFSDLWKLVPENNV)	0.0406
QETFSDLWKLLPENNV L11W (QETFSDLWKLWPENNV)	0.05662
QETFSDLWKLLPENNV L11Y (QETFSDLWKLYPENNV)	0
QETFSDLWKLLPENNV N14A (QETFSDLWKLLPEANV)	0.09053
QETFSDLWKLLPENNV N14D (QETFSDLWKLLPEDNV)	0.005634
QETFSDLWKLLPENNV N14E (QETFSDLWKLLPEENV)	0.004064
QETFSDLWKLLPENNV N14F (QETFSDLWKLLPEFNV)	0.002311
QETFSDLWKLLPENNV N14G (QETFSDLWKLLPEGNV)	0.05312
QETFSDLWKLLPENNV N14H (QETFSDLWKLLPEHNV)	0.03207

Sequence	DMS PSSM value (position-specific score of the amino acid at the position; each column sums to 1)
QETFSDLWKLLPENNV N14I (QETFSDLWKLLPEINV)	0.002379
QETFSDLWKLLPENNV N14K (QETFSDLWKLLPEKNV)	0.004234
QETFSDLWKLLPENNV N14L (QETFSDLWKLLPELNV)	0.02619
QETFSDLWKLLPENNV N14M (QETFSDLWKLLPEMNV)	0.4028
QETFSDLWKLLPENNV N14N	0.01853
QETFSDLWKLLPENNV N14P (QETFSDLWKLLPEPNV)	0.1956
QETFSDLWKLLPENNV N14Q (QETFSDLWKLLPEQNV)	0.01222
QETFSDLWKLLPENNV N14R (QETFSDLWKLLPERNV)	0.004322
QETFSDLWKLLPENNV N14S (QETFSDLWKLLPESNV)	0.02024
QETFSDLWKLLPENNV N14T (QETFSDLWKLLPETNV)	0.008894
QETFSDLWKLLPENNV N14V (QETFSDLWKLLPEVNV)	0.02577
QETFSDLWKLLPENNV N14W (QETFSDLWKLLPEWNV)	0.07145
QETFSDLWKLLPENNV N14Y (QETFSDLWKLLPEYNV)	0.0196
QETFSDLWKLLPENNV N15A (QETFSDLWKLLPENAV)	0.01757
QETFSDLWKLLPENNV N15D (QETFSDLWKLLPENDV)	0.006439
QETFSDLWKLLPENNV N15E (QETFSDLWKLLPENEV)	0.002306
QETFSDLWKLLPENNV N15F (QETFSDLWKLLPENFV)	0.01976
QETFSDLWKLLPENNV N15G (QETFSDLWKLLPENGV)	0.1024
QETFSDLWKLLPENNV N15H (QETFSDLWKLLPENHV)	0.09598
QETFSDLWKLLPENNV N15I (QETFSDLWKLLPENIV)	0.001617
QETFSDLWKLLPENNV N15K (QETFSDLWKLLPENKV)	0.0003426
QETFSDLWKLLPENNV N15L (QETFSDLWKLLPENLV)	0.06563
QETFSDLWKLLPENNV N15M (QETFSDLWKLLPENMV)	0.5287
QETFSDLWKLLPENNV N15N	0.01297
QETFSDLWKLLPENNV N15P (QETFSDLWKLLPENPV)	0.001857
QETFSDLWKLLPENNV N15Q (QETFSDLWKLLPENQV)	0.003625
